Measured values reported in PubChem BioAssay (NCI).
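Step 1: Grow cells in 96-well plates. Step 2: Expose to compound for 48 hours at 5 concentrations. Step 3: Interpolate endpoints linearly; if unreached, use highest concentration. GI50 is the concentration that inhibits growth by half. TGI is the concentration that stops growth completely.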

Key:
Assay in all cases: NCI anticancer screen, dose series, 48 h; in the data active = GI50 below about 0.43 µM; inactive = the rest
NCI-H23 lung = test system: NCI-H23 lung
SF-539 CNS = test system: SF-539 CNS
EKVX NSCLC = test system: EKVX NSCLC
LXFL 529 NSCLC = test system: LXFL 529 NSCLC
NCI-H322M lung = test system: NCI-H322M lung
NCI-H522 lung = test system: NCI-H522 lung
UACC-62 melanoma = test system: UACC-62 melanoma
SNB-75 CNS = test system: SNB-75 CNS
MALME-3M melanoma = test system: MALME-3M melanoma
NCI-H460 lung = test system: NCI-H460 lung
CCRF-CEM leukemia = test system: CCRF-CEM leukemia
A498 renal = test system: A498 renal
HL-60(TB) leukemia = test system: HL-60(TB) leukemia
LOX IMVI melanoma = test system: LOX IMVI melanoma
SK-MEL-2 melanoma = test system: SK-MEL-2 melanoma
SK-MEL-5 melanoma = test system: SK-MEL-5 melanoma
K-562 leukemia = test system: K-562 leukemia
786-0 renal = test system: 786-0 renal
UACC-257 melanoma = test system: UACC-257 melanoma
SF-268 CNS = test system: SF-268 CNS
UO-31 renal = test system: UO-31 renal
CAKI-1 renal = test system: CAKI-1 renal
OVCAR-4 ovarian = test system: OVCAR-4 ovarian
TK-10 renal = test system: TK-10 renal
SNB-19 CNS = test system: SNB-19 CNS
SK-OV-3 ovarian = test system: SK-OV-3 ovarian
HCT-116 colon = test system: HCT-116 colon
M19-MEL melanoma = test system: M19-MEL melanoma
COLO 205 colon = test system: COLO 205 colon
KM12 colon = test system: KM12 colon
HCT-15 colon = test system: HCT-15 colon
ACHN renal = test system: ACHN renal
SW-620 colon = test system: SW-620 colon
DMS 273 small cell lung = test system: DMS 273 small cell lung
SK-MEL-28 melanoma = test system: SK-MEL-28 melanoma
U251 CNS = test system: U251 CNS
SR leukemia = test system: SR leukemia
RXF 393 renal = test system: RXF 393 renal
HOP-62 NSCLC = test system: HOP-62 NSCLC
HCC-2998 colon = test system: HCC-2998 colon
IGROV1 ovarian = test system: IGROV1 ovarian
HOP-92 NSCLC = test system: HOP-92 NSCLC
A549 NSCLC = test system: A549 NSCLC
M14 melanoma = test system: M14 melanoma
OVCAR-3 ovarian = test system: OVCAR-3 ovarian
HT29 colon = test system: HT29 colon
OVCAR-8 ovarian = test system: OVCAR-8 ovarian
RPMI-8226 leukemia = test system: RPMI-8226 leukemia
SN12C renal = test system: SN12C renal
DMS 114 small cell lung = test system: DMS 114 small cell lung
KM20L2 colon = test system: KM20L2 colon
MOLT-4 leukemia = test system: MOLT-4 leukemia
SF-295 CNS = test system: SF-295 CNS

CCCCOP(=O)(OCCCC)N1CCCC1C(=O)O (stereo unspecified)
> 100 µM: TGI (NCI-H23 lung) | TGI (SF-539 CNS) | TGI (EKVX NSCLC) | TGI (LXFL 529 NSCLC) | TGI (NCI-H322M lung) | TGI (NCI-H522 lung) | TGI (UACC-62 melanoma) | TGI (SNB-75 CNS) | TGI (MALME-3M melanoma) | TGI (NCI-H460 lung) | TGI (CCRF-CEM leukemia) | TGI (A498 renal) | TGI (HL-60(TB) leukemia) | TGI (LOX IMVI melanoma) | TGI (SK-MEL-2 melanoma) | TGI (SK-MEL-5 melanoma) | TGI (K-562 leukemia) | TGI (786-0 renal) | TGI (UACC-257 melanoma) | TGI (SF-268 CNS) | TGI (UO-31 renal) | TGI (CAKI-1 renal) | TGI (OVCAR-4 ovarian) | TGI (TK-10 renal) | TGI (SNB-19 CNS) | TGI (SK-OV-3 ovarian) | TGI (HCT-116 colon) | TGI (M19-MEL melanoma) | TGI (COLO 205 colon) | TGI (KM12 colon) | TGI (HCT-15 colon) | TGI (ACHN renal) | TGI (SW-620 colon) | TGI (DMS 273 small cell lung) | TGI (SK-MEL-28 melanoma) | TGI (U251 CNS) | TGI (SR leukemia) | TGI (RXF 393 renal) | TGI (HOP-62 NSCLC) | TGI (HCC-2998 colon) | TGI (IGROV1 ovarian) | TGI (HOP-92 NSCLC) | TGI (A549 NSCLC) | TGI (M14 melanoma) | TGI (OVCAR-3 ovarian) | TGI (HT29 colon) | TGI (OVCAR-8 ovarian) | TGI (RPMI-8226 leukemia) | TGI (SN12C renal) | TGI (DMS 114 small cell lung) | TGI (KM20L2 colon) | TGI (MOLT-4 leukemia) | TGI (SF-295 CNS)
inactive: GI50 (NCI-H23 lung) > 100 µM | GI50 (SF-539 CNS) > 100 µM | GI50 (EKVX NSCLC) > 100 µM | GI50 (LXFL 529 NSCLC) > 100 µM | GI50 (NCI-H322M lung) > 100 µM | GI50 (NCI-H522 lung) > 100 µM | GI50 (UACC-62 melanoma) > 100 µM | GI50 (SNB-75 CNS) > 100 µM | GI50 (MALME-3M melanoma) > 100 µM | GI50 (NCI-H460 lung) > 100 µM | GI50 (CCRF-CEM leukemia) > 100 µM | GI50 (A498 renal) > 100 µM | GI50 (HL-60(TB) leukemia) > 100 µM | GI50 (LOX IMVI melanoma) > 100 µM | GI50 (SK-MEL-2 melanoma) > 100 µM | GI50 (SK-MEL-5 melanoma) > 100 µM | GI50 (K-562 leukemia) > 100 µM | GI50 (786-0 renal) > 100 µM | GI50 (UACC-257 melanoma) > 100 µM | GI50 (SF-268 CNS) > 100 µM | GI50 (UO-31 renal) > 100 µM | GI50 (CAKI-1 renal) > 100 µM | GI50 (OVCAR-4 ovarian) > 100 µM | GI50 (TK-10 renal) > 100 µM | GI50 (SNB-19 CNS) > 100 µM | GI50 (SK-OV-3 ovarian) > 100 µM | GI50 (HCT-116 colon) > 100 µM | GI50 (M19-MEL melanoma) > 100 µM | GI50 (COLO 205 colon) > 100 µM | GI50 (KM12 colon) > 100 µM | GI50 (HCT-15 colon) > 100 µM | GI50 (ACHN renal) > 100 µM | GI50 (SW-620 colon) > 100 µM | GI50 (DMS 273 small cell lung) > 100 µM | GI50 (SK-MEL-28 melanoma) > 100 µM | GI50 (U251 CNS) > 100 µM | GI50 (SR leukemia) > 100 µM | GI50 (RXF 393 renal) > 100 µM | GI50 (HOP-62 NSCLC) > 100 µM | GI50 (HCC-2998 colon) > 100 µM | GI50 (IGROV1 ovarian) > 100 µM | GI50 (HOP-92 NSCLC) > 100 µM | GI50 (A549 NSCLC) > 100 µM | GI50 (M14 melanoma) > 100 µM | GI50 (OVCAR-3 ovarian) > 100 µM | GI50 (HT29 colon) > 100 µM | GI50 (OVCAR-8 ovarian) > 100 µM | GI50 (RPMI-8226 leukemia) > 100 µM | GI50 (SN12C renal) > 100 µM | GI50 (DMS 114 small cell lung) > 100 µM | GI50 (KM20L2 colon) > 100 µM | GI50 (MOLT-4 leukemia) > 100 µM | GI50 (SF-295 CNS) > 100 µM
